Data taken from patent publication EP0932387B1, “SKIN CARE COMPOSITIONS CONTAINING COMBINATIONS OF COMPOUNDS FOR MIMICKING THE EFFECT ON SKIN OF RETINOIC ACID” (UNILEVER PLC, priority 1996, dated 1998).

Experiments:
[1] = target: T1, lecithin retinol acyl transferase (LRAT) (Bos taurus, UniProt Q9BGL2); test: In vitro Microsomal Assay, LRAT catalyzed retinol esterification (retinyl laurate formation); assay type: biochemical, bovine; details: Table 3; 100 micromolar
T1 construct: a microsomal fraction isolated from bovine retinal pigment epithelial cells; from tissue; host or cells: bovine retinal pigment epithelium, microsomal fraction
T1 sequence (Q9BGL2 1-230): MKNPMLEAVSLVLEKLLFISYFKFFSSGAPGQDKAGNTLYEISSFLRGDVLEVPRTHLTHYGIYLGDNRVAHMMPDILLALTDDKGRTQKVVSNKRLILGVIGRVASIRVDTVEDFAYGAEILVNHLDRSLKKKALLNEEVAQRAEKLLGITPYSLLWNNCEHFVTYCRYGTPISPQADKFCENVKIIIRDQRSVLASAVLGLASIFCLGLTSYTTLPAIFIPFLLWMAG

[2] = test system: acyl CoA retinol transferase (ARAT); test: In vitro Microsomal Assay, ARAT catalyzed retinol esterification (retinyl palmitate formation); assay type: biochemical, bovine; details: Table 3; 100 micromolar

## cocoylhydroxyethyl imidazoline
[1]
  % INHIB. LRAT: 65%
[2]
  % INHIB. ARAT: 68%
